The target of one assay is T1, VHX (Homo sapiens, UniProt Q9NRW4).
T1 sequence (Q9NRW4 1-184): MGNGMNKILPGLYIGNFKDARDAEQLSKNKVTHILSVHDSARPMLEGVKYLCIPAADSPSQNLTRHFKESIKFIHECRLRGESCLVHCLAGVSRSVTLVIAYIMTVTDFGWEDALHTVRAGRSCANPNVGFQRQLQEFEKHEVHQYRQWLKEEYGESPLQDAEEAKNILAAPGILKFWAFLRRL
The assay is classed as biochemical.

The chains behind the UniProt entries cited, without tags or fusion partners.
UniProt Q06124, whole entry, species assumed: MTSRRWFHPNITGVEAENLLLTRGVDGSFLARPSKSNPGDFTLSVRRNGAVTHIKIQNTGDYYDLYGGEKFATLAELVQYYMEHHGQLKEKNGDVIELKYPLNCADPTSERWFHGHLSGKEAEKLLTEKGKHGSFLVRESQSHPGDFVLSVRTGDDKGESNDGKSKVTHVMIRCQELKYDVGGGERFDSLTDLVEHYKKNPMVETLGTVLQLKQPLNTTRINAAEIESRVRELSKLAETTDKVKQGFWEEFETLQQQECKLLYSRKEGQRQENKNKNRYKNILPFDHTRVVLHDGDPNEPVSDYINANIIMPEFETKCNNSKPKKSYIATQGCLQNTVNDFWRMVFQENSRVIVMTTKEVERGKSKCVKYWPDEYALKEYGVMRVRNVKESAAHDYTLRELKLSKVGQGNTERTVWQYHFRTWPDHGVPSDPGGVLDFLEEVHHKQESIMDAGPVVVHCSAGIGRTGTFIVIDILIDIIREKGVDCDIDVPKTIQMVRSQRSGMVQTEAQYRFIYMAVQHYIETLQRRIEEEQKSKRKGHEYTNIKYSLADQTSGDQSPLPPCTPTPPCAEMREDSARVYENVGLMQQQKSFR
UniProt P51452, whole entry, species assumed: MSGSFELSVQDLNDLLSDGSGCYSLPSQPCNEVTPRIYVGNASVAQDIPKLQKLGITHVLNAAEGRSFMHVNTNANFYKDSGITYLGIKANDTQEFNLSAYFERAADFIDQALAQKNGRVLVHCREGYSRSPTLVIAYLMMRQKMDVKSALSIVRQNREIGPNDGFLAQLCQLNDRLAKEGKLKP

The target of the next assay is T2, LMWPTP (Homo sapiens, UniProt P24666).
T2 sequence (P24666 1-158): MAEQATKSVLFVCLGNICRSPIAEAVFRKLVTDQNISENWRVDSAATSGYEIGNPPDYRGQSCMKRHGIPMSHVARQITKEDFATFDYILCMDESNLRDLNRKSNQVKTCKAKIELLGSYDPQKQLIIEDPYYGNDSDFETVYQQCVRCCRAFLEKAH
Kind of assay: PTP selectivity panel: LMWPTP. The assay is classed as biochemical.

Another assay concerns the target T3, HePTP (Homo sapiens, UniProt P35236).
T3 sequence (P35236 1-360): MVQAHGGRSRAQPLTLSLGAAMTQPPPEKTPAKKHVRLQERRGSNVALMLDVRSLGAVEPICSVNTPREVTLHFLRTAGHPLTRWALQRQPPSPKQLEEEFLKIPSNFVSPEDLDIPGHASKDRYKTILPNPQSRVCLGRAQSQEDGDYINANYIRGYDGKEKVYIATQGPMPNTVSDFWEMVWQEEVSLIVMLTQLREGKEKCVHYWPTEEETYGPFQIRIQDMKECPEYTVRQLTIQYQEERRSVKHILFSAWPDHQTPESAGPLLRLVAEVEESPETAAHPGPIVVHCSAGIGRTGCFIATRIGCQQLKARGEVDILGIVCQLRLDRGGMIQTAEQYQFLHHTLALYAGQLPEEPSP
Format: biochemical.

The target in the next assay is SHP2 (Homo sapiens, UniProt Q06124). To be noted: read-out: IC50 (μM) SHP2.
A further assay deals with VHR (Homo sapiens, UniProt P51452). Particulars: read-out: IC50 (μM) VHR.

SMILES strings stand for the structures.

A word on the IC50: it is the point on the concentration scale where inhibition reaches its midpoint.

Turning to `O=C(O)c1cc2c(C#Cc3cc(F)cc(F)c3)c(-c3ccccc3)oc2cc1O` [31 (L01Z06)], the half-maximal inhibitory concentration (IC50) at VHX and against LMWPTP was 2.9 ± 0.3 µM in each case.
`O=C(O)c1cc2c(C#Cc3cccc(C(F)(F)F)c3)c(-c3ccccc3)oc2cc1O` [32 (L01Z08)] returned an IC50 against HePTP of 2.1 ± 0.3 µM.
As to `O=C(O)c1cc2c(C#Cc3ccc(OC(F)(F)F)cc3)c(-c3ccccc3)oc2cc1O` [33 (L01Z09)], the IC50 at SHP2 is 1.8 ± 0.6 µM; at VHR, 2.1 ± 0.2 µM.

Source of the values: patent publication US9493436B2, “Tyrosine phosphatase inhibitors and uses thereof to modulate the activity of enzymes involved in the pathology of Mycobacterium tuberculosis” (priority 2011, dated 2016).
